A selection: hits, their analogues and other compounds. The true share with any hit is near 0.59%.
Rango release inh – inhibition of RanGTP-driven Rango-importin beta dissociation; Biochemical FRET Rango-importin beta, RanGTP-induced dissociation; Potency, µM (doses to about 46.1 µM), without a hit: top-dose activity change, negative = inhibition; actives 0.071% (n = 340,000); also: potency is read from the fitted curve at half-maximal effect; % of control where 0% means no effect; nearly all actives have a fitted effect of over 45% in size
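Two FRET readings bracket the reaction: one 5 min after compound meets Rango–importin beta, another 45 min after RanGTP-RCC1 (0.6 uM Ran, 0.2 uM RCC1, 2 mM GTP) is added. Only the second defines inhibition.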
A-T KAP1 phos – potential ataxia-telangiectasia treatment. F2112 A-T fibroblasts, KAP-1 phosphorylation AlphaLISA; neocarzinostatin DNA damage 30 min before lysis. Potency, µM (highest dose often 57.5 µM), inactives show at the highest dose activation, actives largely listed as activators. actives 0.19% (n = 320,000); active = well fitted activation curve with a large enough effect; inconclusive = small, poorly fitted or top-dose-only effect; inactive = no such curve, though single readings can be large or run the other way; also: potency is read from the fitted curve at half-maximal effect; % of control where 0% means no effect; nearly all actives have a fitted effect of over 45% in size
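hTERT-immortalized A-T patient fibroblasts (F2112), 500 cells/well in OPTI-MEM, 1% FBS, got compounds for 60 min, then NCS for 30 min at 37C. Lysates were then assayed for phospho-KAP-1 by AlphaLISA (anti-pKAP1 donor, anti-KAP1 acceptor beads), 6 hr at 25C.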
Rango-impB inh – inhibitors of Rango-importin beta complex formation; actives 0.031% (n = 340,000); Rango CFP/YFP FRET sensor + importin beta, 45 min; Potency, µM (doses to about 92.2 µM), inactives show at the top dose inhibition of complex formation; Q14974;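 also: potency is read from the fitted curve at half-maximal effect; 0% = DMSO wells and 100% = buffer wells lacking importin beta; nearly all actives have a fitted effect of over 15% in size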
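FRET biosensor Rango (snurportin 1 IBB between N-terminal EYFP and C-terminal Cerulean), 50 nM in PBS/1 mM DTT/0.02% Tween-20/0.1% BSA, preincubated 5 min RT with compound; 0.125 microM importin beta added, 45 min RT, CFP/YFP FRET ratio read.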
PKM2 act – increases activity of human pyruvate kinase M2; purified PKM2, Kinase-Glo ATP luminescence, activation; response scale: 0% is enzyme alone, no compound; Potency, µM (titrated, usually from 57.5 µM), inactives show at the top dose activation, actives largely listed as activators; actives 0.34% (n = 260,000); active = well fitted activation curve with a large enough effect; inconclusive = small, poorly fitted or top-dose-only effect; inactive = no such curve, though single readings can be large or run the other way; also: potency is read from the fitted curve at half-maximal effect; % is scaled to controls: 0 for no effect and ±100 for the full control effect; nearly all actives have a fitted effect of over 55% in size
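hPK-M2, >95% pure; 0.1 mM ADP / 0.5 mM PEP final; imidazole pH7.2 buffer w/ 7 mM MgCl2, 50 mM KCl; 1 h RT; Kinase-Glo lum. Intermediate enzyme activity for dual inhibitor/activator qHTS.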
IL-2 act – activators of IL-2; IL-2 activation reporter assay, cell-based qHTS; stimulated with anti-CD3/CD4/CD28 beads; in transgenic mouse T cells; activation, % (series mostly up to about 46 µM); actives 0.065% (n = 360,000); AID 652025; in the data active = activation above about 50%; inconclusive = mostly about 30% to 49%; also: 0% is about no effect
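EGFP and DsRed fluorescence is measured by plate cytometry in unstimulated transgenic mouse T cells exposed to compound for 60 minutes, then stimulated 18 hours at 37 degrees C with anti-CD3/anti-CD4 beads plus anti-CD28.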
Numbers without * were called inactive; ? = inconclusive; . = no result given; [ ] = dose if it differs, or a comment. Unless noted, calls follow the shape of the full dose curve.

Short forms: A = Rango release inh; B = A-T KAP1 phos; C = Rango-impB inh; D = PKM2 act; E = IL-2 act
> O=C(Cc1cccs1)N1CCN(S(=O)(=O)c2ccc(Br)cc2)CC1
  A: -8%	B: 0%	C: 0%	D: 3.2µM*	E: 1

> CS(=O)(=O)N1CCN(C(=O)Cc2cccs2)CC1
  A: 12%	B: 3%	C: 2%	D: 0%	E: -1

> CCC1=Nc2cc(C(=O)NCc3ccco3)ccc2Sc2ccc(Cl)cc21
  A: -8%	B: -10%	C: 5%	D: 18%	E: -1

> CCC1=Nc2cc(C(=O)NCc3ccco3)ccc2Sc2ccccc21
  A: 1%	B: -13%	C: 1%	D: 18µM*	E: -4

> CCOc1ccc(N2CC(C(=O)Nc3cc(S(=O)(=O)N4CCCCC4)ccc3C)CC2=O)cc1 (stereo unspecified)
  A: 1%	B: -4%	C: -1%	D: .	E: -4

> Cc1cc(N2CCOCC2)nc2cc(O)ccc12
  A: 16µM*	B: 5%	C: ?	D: 1%	E: -4

> O=C(OCc1ccccc1)N1CCC2CC1c1ccc(N3CCN(Cc4ccc5c(c4)OCO5)CC3)cc12 (stereo unspecified)
  A: .	B: .	C: .	D: .	E: 0

> O=C(NCc1ccco1)/C(=C\c1cccs1)NC(=O)c1ccco1
  A: 1%	B: 9%	C: 5%	D: 28µM*	E: -1

> O=C(NCc1ccc(/C=c2\sc3n(c2=O)CCN=3)o1)C(=O)Nc1ccccc1
  A: .	B: -2%	C: .	D: 20µM*	E: .

> Cc1ccc(/C=c2/sc3n(c2=O)CCCN=3)o1
  A: -18%	B: -7%	C: -2%	D: 12%	E: 2

Further entries follow:
Short forms: A = Rango release inh; B = A-T KAP1 phos; C = Rango-impB inh; D = PKM2 act; E = IL-2 act
> CN(C/C=C/c1ccccc1)Cc1cccc2ccccc12
  A: 1%	B: 40µM*	C: 0%	D: .	E: 0

> Cc1ccc2c(c1)C(c1ccccc1)N(C(=O)CC(C)C)CC(=O)N2 (stereo unspecified)
  A: -18%	B: 3.5µM*	C: 0%	D: .	E: -1

> Cc1ccc2c(c1)C(c1ccccc1)N(C(=O)c1ccc(Br)o1)CC(=O)N2 (stereo unspecified)
  A: -10%	B: 15%	C: 2%	D: 5%	E: -2

> CCCC(=O)Nc1ccccc1Sc1ncnc2scc(-c3ccccc3)c12
  A: 0%	B: 0%	C: -4%	D: 8%	E: 1

> Cc1ccc(N)cc1O
  A: 23µM*	B: 7%	C: ?	D: .	E: 0

> COc1ccc2c(C)cc(SCC(=O)N3CCOCC3)nc2c1
  A: -8%	B: 11%	C: 33µM*	D: -3%	E: 17

> Cc1cc(SCc2ccccc2F)nc(=O)[nH]1
  A: -15%	B: -4%	C: -7%	D: 16µM*	E: 0

> Cc1cc(SCc2ccccc2C)nc(=O)[nH]1
  A: 0%	B: 24%	C: 0%	D: .	E: -1

> Cc1[nH]nc(SCC(=O)NCc2ccccc2)c1[N+](=O)[O-]
  A: 4%	B: 0%	C: -4%	D: -7%	E: -1

> Cc1[nH]nc(SCC(=O)Nc2cccc(O)c2)c1[N+](=O)[O-]
  A: 4%	B: -7%	C: -3%	D: 10µM*	E: 0

Additional entries
Short forms: A = Rango release inh; B = A-T KAP1 phos; C = Rango-impB inh; D = PKM2 act; E = IL-2 act
> O=C(NCc1ccc(Cl)cc1)C1CCCN(c2cnccn2)C1 (stereo unspecified)
  A: -9%	B: -1%	C: 0%	D: .	E: -1

> COc1ccc(C2/C=C\CN(C(=O)C3CCCCC3)CC(=O)N2Cc2ccc(F)cc2)cc1 (stereo unspecified)
  A: 2%	B: 26%	C: -1%	D: 0%	E: 1

> COc1ccc(C2/C=C\CN(C(=O)C3CCCC3)CC(=O)N2Cc2ccc(F)cc2)cc1 (stereo unspecified)
  A: 5%	B: 14µM*	C: 2%	D: 11%	E: 0

> O=S(=O)(Cc1ccccc1)N1CCN(c2ncccn2)CC1
  A: -1%	B: -1%	C: 0%	D: .	E: 1

> CC(=O)CCc1oc2c([N+](=O)[O-])cccc2c1-c1ccc(C)o1
  A: 65%	B: 7%	C: -3%	D: 10µM*	E: -1

> CC1(c2ccc(Cl)cc2)NC(=O)N(CC(=O)N2CCc3ccccc32)C1=O (stereo unspecified)
  A: 19%	B: 12%	C: -3%	D: .	E: 0

> COc1ccccc1C1CCN(Cc2ccc(Cl)cc2Cl)CC1
  A: 8%	B: 11%	C: -1%	D: .	E: 0

> COc1ccccc1C1CCN(Cc2ccc(Cl)c(Cl)c2)CC1
  A: -3%	B: 25µM*	C: 2%	D: .	E: -3

> O=C(OCc1cn([C@H]2CN(C(=O)C3CCCCC3)[C@@H](c3ccc(Cl)cc3)C[C@@H]2O)nn1)c1ccccc1
  A: .	B: .	C: .	D: .	E: -1

> Cc1ccc(OCCCCN2CCc3ccccc3C2)c(C)c1
  A: -9%	B: 35µM*	C: 0%	D: -2%	E: -2

Later entries
Short forms: A = Rango release inh; B = A-T KAP1 phos; C = Rango-impB inh; D = PKM2 act; E = IL-2 act
> Cc1ccc(C(C)C)c(OCCN2CCc3ccccc3C2)c1
  A: -8%	B: 35µM*	C: 0%	D: -2%	E: -1

> Cc1ccc(C)c(OCCCN2CCc3ccccc3C2)c1
  A: -17%	B: 41%	C: 1%	D: 0%[11.5 µM]	E: -2

> Cc1ccc(C(C)C)c(OCCCN(C)Cc2ccccc2)c1
  A: 6%	B: 35µM*	C: 5%	D: -17%	E: 1

> Cc1ccc(C(C)C)c(OCC(O)CN(C)Cc2ccccc2)c1 (stereo unspecified)
  A: 10%	B: 2%	C: 3%	D: .	E: -1

> Cc1ccc(C(C)C)c(OCCCN2CCc3ccccc3C2)c1
  A: -12%	B: ?	C: -2%	D: -2%	E: 1

> CCN(CC)CCCCn1c(-c2ccccc2)nc2c(NCCOC)nc(C)nc21
  A: .	B: .	C: .	D: 0%	E: .

> CCc1nnc(NC(=O)CSc2nc(C)c3c(c2C#N)CCCC3)s1
  A: ?	B: 4%	C: ?	D: 10µM*	E: -2

> COc1ccc(NC(=O)CSc2nc(C)c3c(c2C#N)CCCC3)cc1
  A: -1%	B: 6%	C: 1%	D: -1%	E: -2

> CN1/C(=C/c2cccc[n+]2C)Sc2ccccc21
  A: 12µM*	B: -15%	C: ?	D: .	E: -2

> Cc1ccc2c(c1)N(C)/C(=C/c1cccc[n+]1C)S2
  A: ?	B: 0%	C: ?	D: .	E: 0

Complete entries, looked up by structure. Order of values: Rango release inh, A-T KAP1 phos, Rango-impB inh, PKM2 act, IL-2 act
`CCc1nnc(NC(=O)CSc2nc(C)c3c(c2C#N)CCCC3)s1` is listed as ?, 4%, ?, 10µM*, -2
`COc1ccc(NC(=O)CSc2nc(C)c3c(c2C#N)CCCC3)cc1` is listed as -1%, 6%, 1%, -1%, -2

Some values from the results shown.
Rango release inh with Cc1ccc(C(C)C)c(OCC(O)CN(C)Cc2ccccc2)c1 (stereo unspecified) : 10%
IL-2 act with Cc1ccc2c(c1)N(C)/C(=C/c1cccc[n+]1C)S2 : 0
IL-2 act with Cc1ccc(C(C)C)c(OCCCN2CCc3ccccc3C2)c1 : 1
IL-2 act with CCc1nnc(NC(=O)CSc2nc(C)c3c(c2C#N)CCCC3)s1 : -2

(listing goes on)
Short forms: A = Rango release inh; B = A-T KAP1 phos; C = Rango-impB inh; D = PKM2 act; E = IL-2 act
> Brc1ccc2nc(CSc3ncn[nH]3)cn2c1
  A: -1%	B: 8%	C: 0%	D: 20µM*	E: 0

> CC(C)NC(=O)NC(=O)CSc1ncc(C(F)(F)F)cc1Cl
  A: 1%	B: 12%	C: -5%	D: 14µM*	E: -2

> CC(C)(C)NC(=O)NC(=O)CSc1ncc(C(F)(F)F)cc1Cl
  A: 4%	B: -2%	C: 0%	D: 0%	E: -1

> COc1ccc(-n2c(=O)/c(=C\c3cccs3)s/c2=C(/C#N)C(=O)NCCN2CCOCC2)cc1
  A: ?	B: -2%	C: ?	D: -1%	E: 137*

> C=CCn1c(=O)/c(=C\c2ccsc2)s/c1=C(/C#N)C(=O)NCCN1CCOCC1
  A: 3%	B: -4%	C: 0%	D: -5%	E: 0

> O=C(Nc1ccc(Cl)cc1)Nc1nc(-c2ccccc2O)cs1
  A: 1%	B: 40µM*	C: -1%	D: -2%	E: -1

> O=C(Nc1ccc(Cl)cc1)Nc1nc(-c2sccc2Br)cs1
  A: -15%	B: 12%	C: ?	D: 1%	E: -5

> COc1ccc(COC(=O)N/C=C/c2ccco2)cc1
  A: -14%	B: -4%	C: ?	D: 27%	E: -1

> COc1ccccc1COC(=O)N/C=C/c1ccco1
  A: ?	B: 0%	C: ?	D: 18µM*	E: 0

> O=c1oc2cc(O)ccc2cc1-c1nc2c(s1)CCc1ccccc1-2
  A: ?	B: 18µM*	C: ?	D: -7%	E: 50*

> CCN1CCc2c(C#N)c(N3CCCCC3)nc(N3CCOCC3)c2C1
  A: ?	B: -2%	C: ?	D: -2%	E: -1

> N#Cc1c(N2CCOCC2)nc(N2CCCCC2)c2c1CCN(C1CCCCC1)C2
  A: 23µM*	B: 3%	C: ?	D: -5%	E: 1
